This experiment addresses T1, human platelet phospholipase A2 (Homo sapiens, UniProt P14555).
T1 construct: a preparation of human platelet phospholipase A2; from tissue; host or cells: human platelets
T1 sequence (P14555 21-144): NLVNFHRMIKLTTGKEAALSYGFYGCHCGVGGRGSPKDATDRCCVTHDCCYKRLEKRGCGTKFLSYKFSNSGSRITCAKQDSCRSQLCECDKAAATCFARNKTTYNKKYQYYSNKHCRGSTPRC
In words: Inhibition of human platelet phospholipase A2 (14C-oleate E. coli substrate). Type of experiment: biochemical. The protocol:
The activity of the compounds of the invention against phospholipase A2 is determined using a preparation of human platelet phospholipase A2 with a specific activity of 180 nmol/min/mg as the enzyme source. Polypropylene 15-ml test tubes are utilized as the reaction vessels. All drug samples are run in duplicate, with "blank" and "control" (no test compound) groups run in triplicate. […] Test compounds are dissolved in DMSO, and diluted to a projected final concentration of either 50 or 10 μM in 550 μl HEPES buffer at pH 7.0. A 1:7 dilution of human platelet PLA2 in HEPES buffer (5 μl) is added to each test tube, followed by gentle vortexing for 3 seconds. […]
The plate is developed with an 80:20:1 mixture of petroleum ether-diethyl ether-acetic acid. […] The plate is scored above the origin, cut along the score with scissors, and the reactant (origin) and product portions of each channel are put into separate scintillation vials. […] The vials are shaken vigorously for 5 sec, and the radioactive ^14 C in each vial is measured with a scintillation counter, which provides the counts-per-minute (cpm) for each sample. […]
The percentage of phospholipid hydrolyzed is calculated by the formula: […]
The inhibition of phospholipase A2 by the test compounds is expressed as a percent inhibition relative to the control group: […]

Drawing on patent publication US5464865A, “4-aryl- and 4-arylthio-5-hydroxy-2(5H)-furanones as inhibitors of phospholipase A2” (Ortho Pharmaceutical Corporation, priority 1993, dated 1995), this text covers IC50 for one compound.

Structures are written as SMILES.

Turning to `Cc1cc2c(C(C)C)c(O)c(O)c(C=O)c2c(O)c1-c1c(C)cc2c(C(C)C)c(O)c(O)c(C=O)c2c1O` [Gossypol, reference compound], inhibition was half-maximal at 1000 nM (IC50).
